# Tests used:
# Sequences of proteins named here, by UniProt entry; tags and fusion partners are left off. Residues count along the entry.
# UniProt P43220, 24-463 limits assumed: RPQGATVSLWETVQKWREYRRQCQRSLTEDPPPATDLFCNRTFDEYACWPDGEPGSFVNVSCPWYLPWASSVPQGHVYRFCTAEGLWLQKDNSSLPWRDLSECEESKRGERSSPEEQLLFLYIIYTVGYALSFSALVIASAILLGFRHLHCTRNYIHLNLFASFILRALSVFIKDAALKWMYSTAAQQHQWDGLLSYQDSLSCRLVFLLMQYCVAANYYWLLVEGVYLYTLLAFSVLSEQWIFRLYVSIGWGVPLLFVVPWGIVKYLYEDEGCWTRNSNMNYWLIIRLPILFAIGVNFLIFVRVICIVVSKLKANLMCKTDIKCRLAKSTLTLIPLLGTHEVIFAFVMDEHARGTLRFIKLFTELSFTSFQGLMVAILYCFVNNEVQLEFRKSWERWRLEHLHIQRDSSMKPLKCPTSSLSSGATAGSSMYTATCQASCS
# UniProt P41595, whole entry: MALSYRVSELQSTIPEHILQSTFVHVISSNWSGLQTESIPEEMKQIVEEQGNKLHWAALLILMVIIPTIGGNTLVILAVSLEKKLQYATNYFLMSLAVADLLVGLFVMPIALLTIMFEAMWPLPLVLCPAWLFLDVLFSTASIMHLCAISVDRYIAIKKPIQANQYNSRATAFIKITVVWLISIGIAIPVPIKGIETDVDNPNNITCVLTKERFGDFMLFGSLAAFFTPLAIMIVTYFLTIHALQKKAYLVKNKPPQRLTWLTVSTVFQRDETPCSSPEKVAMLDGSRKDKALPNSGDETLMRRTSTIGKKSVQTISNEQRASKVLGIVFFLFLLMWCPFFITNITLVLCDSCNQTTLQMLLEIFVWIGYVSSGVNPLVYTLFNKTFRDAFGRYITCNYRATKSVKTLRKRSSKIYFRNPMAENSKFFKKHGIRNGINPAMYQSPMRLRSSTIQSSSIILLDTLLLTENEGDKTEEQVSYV
# UniProt Q13936, whole entry: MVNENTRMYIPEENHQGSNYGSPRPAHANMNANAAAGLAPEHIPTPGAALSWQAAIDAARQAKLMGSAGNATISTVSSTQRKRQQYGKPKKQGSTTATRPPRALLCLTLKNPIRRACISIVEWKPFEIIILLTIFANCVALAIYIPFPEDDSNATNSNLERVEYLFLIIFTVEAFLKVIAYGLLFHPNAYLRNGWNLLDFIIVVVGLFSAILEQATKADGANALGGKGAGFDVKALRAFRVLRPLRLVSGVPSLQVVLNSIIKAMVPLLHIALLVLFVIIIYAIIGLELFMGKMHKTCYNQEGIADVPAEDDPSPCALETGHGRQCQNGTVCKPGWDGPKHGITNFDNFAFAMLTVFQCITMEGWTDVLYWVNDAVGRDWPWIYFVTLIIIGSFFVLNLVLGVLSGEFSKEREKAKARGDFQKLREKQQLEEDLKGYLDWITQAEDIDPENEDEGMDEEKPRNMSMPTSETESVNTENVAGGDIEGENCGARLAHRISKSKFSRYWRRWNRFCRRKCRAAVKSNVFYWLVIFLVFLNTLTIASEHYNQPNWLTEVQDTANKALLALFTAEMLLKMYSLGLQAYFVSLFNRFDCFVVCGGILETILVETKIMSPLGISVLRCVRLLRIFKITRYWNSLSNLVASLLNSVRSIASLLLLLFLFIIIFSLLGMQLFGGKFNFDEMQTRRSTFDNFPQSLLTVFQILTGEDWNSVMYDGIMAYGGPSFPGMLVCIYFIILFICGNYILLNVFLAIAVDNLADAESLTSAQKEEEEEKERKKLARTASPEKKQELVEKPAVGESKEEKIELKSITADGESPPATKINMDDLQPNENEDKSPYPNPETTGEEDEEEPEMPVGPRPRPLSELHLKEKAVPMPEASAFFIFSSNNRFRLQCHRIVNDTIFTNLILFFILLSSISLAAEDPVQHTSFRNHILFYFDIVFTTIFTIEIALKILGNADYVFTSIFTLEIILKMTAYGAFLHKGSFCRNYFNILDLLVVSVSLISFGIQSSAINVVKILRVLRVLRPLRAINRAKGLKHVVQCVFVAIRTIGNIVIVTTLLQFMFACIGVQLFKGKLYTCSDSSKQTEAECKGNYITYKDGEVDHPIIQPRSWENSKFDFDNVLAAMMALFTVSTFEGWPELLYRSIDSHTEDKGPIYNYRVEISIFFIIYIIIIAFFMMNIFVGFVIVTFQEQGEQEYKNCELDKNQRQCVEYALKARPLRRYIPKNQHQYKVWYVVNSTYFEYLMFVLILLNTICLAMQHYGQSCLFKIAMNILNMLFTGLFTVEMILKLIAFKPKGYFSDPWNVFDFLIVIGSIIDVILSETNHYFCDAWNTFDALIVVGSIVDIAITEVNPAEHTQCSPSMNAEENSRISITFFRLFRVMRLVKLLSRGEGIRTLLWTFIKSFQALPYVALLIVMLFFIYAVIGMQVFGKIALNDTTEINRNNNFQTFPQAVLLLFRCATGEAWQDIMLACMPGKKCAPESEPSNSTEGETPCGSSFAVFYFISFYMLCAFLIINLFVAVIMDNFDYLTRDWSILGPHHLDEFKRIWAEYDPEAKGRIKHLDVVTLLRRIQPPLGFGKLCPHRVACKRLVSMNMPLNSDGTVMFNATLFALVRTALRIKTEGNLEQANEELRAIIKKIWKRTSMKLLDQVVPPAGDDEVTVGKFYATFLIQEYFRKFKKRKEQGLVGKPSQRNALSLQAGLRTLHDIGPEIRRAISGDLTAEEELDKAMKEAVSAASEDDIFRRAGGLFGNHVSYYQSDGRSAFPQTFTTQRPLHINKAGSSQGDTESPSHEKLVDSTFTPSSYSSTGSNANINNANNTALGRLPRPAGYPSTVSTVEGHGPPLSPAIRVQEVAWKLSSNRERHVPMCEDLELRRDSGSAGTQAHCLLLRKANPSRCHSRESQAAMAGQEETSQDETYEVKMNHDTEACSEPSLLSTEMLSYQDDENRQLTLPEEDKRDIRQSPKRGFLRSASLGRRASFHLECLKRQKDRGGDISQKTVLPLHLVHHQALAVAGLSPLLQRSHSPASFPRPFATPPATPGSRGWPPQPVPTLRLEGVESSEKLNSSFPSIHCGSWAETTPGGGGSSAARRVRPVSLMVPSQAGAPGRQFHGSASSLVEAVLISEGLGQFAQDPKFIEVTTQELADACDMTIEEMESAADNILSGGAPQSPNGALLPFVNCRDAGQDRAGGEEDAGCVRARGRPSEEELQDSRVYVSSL
# UniProt P41143, whole entry: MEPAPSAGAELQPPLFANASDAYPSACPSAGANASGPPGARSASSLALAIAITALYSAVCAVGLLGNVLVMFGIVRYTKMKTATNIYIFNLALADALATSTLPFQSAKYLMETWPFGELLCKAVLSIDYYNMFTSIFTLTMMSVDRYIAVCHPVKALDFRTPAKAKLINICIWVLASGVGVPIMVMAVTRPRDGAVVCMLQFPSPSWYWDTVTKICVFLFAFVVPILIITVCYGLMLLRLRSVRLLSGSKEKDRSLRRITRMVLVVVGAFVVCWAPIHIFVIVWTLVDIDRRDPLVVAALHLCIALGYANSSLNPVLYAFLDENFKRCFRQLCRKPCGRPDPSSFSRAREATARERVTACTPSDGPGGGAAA
# GLP-1R = GLP-1R (Homo sapiens, UniProt P43220); assay: GLP1R-cAmp-Luc cell luciferase reporter assay of agonistic activity (titled in vitro enzymatic assay); details: read-out: Agonistic activity (EC50: nM); GLP1R-cAmp-Luc cells, 4 h incubation
# [1] = Weight-loss drug efficacy in DIO C57BL/6 hGLP1R mice; details: 0.3 mg/kg i.g. qd
# 5HT2B = 5HT2B (Homo sapiens, UniProt P41595); assay: Off-target safety panel, single target; details: test concentration of 10 µM
# Ca^2+-L = Ca^2+-L (Homo sapiens, UniProt Q13936); assay: Off-target safety panel, single target; details: test concentration of 10 µM
# op-delta = op-delta (Homo sapiens, UniProt P41143); assay: Off-target safety panel, single target; details: test concentration of 10 µM
# [2] = Intraperitoneal glucose tolerance test (IPGTT) in hGLP-1R transgenic mice
# 44 targets = assay: Safety assessment of off-target effects on 44 targets (radioligand binding, calcium flux, enzyme assays); details: any of the 44 targets
# [3] = In vivo pharmacokinetic study in mice; details: ICR mice
# [4] = In vivo pharmacokinetic study in rats; details: SD rats, oral (intragastric) 10 mg/kg
# [5] = iv (2 mg/kg), detection results at 24 h
# [6] = iv (2 mg/kg), detection results at 72 h
# [7] = po (10 mg/kg), detection results at 24 h
# [8] = po (10 mg/kg), detection results at 72 h
structure (smiles),measurement,setting,value
Cc1cc(-n2nc3c(c2-n2ccn(-c4cc(C)c5c(cnn5C5CC5)c4)c2=O)[C@H](C)N(C(=O)c2cc4cc([C@H]5CCOC(C)(C)C5)ccc4n2[C@@]2(c4noc(=O)[nH]4)C[C@@H]2C)CC3)cc(C)c1F,EC50,GLP-1R,< 10 nM
Cc1cc(-n2nc3c(c2-n2ccn(-c4ccc5c(cnn5C5CC5)c4C)c2=O)[C@H](C)N(C(=O)c2cc4cc([C@H]5CCOC(C)(C)C5)ccc4n2[C@@]2(c4noc(=O)[nH]4)C[C@@H]2C)CC3)cc(C)c1F,EC50,GLP-1R,< 10 nM
Cc1cc(-n2nc3c(c2NC(=O)N(C)c2ccc4c(cnn4C)c2)[C@H](C)N(C(=O)c2cc4cc([C@H]5CCOC(C)(C)C5)ccc4n2[C@@]2(c4noc(=O)[nH]4)C[C@@H]2C)CC3)cc(C)c1F,EC50,GLP-1R,< 10 nM
Cc1cc(-n2nc3c(c2-n2ccn(-c4ccc5c(cnn5C)c4F)c2=O)[C@H](C)N(C(=O)c2cc4cc([C@H]5CCOC(C)(C)C5)ccc4n2[C@@]2(c4noc(=O)[nH]4)C[C@@H]2C)CC3)cc(C)c1F,average body weight gain rate,[1]; after 18 days of continuous administration,-15.1%
same,inhibition rate,5HT2B,> 50%
same,inhibition rate,Ca^2+-L,> 50%
same,inhibition rate,op-delta,> 50%
Cc1cc(-n2nc3c(c2N(C)C(=O)Nc2ccc4c(cnn4C)c2)[C@H](C)N(C(=O)c2cc4cc([C@H]5CCOC(C)(C)C5)ccc4n2[C@@]2(c4noc(=O)[nH]4)C[C@@H]2C)CC3)cc(C)c1F,EC50,GLP-1R,< 10 nM
Cc1cc(-n2nc3c(c2-n2ccn(-c4ccc5c6n(nc5c4)CCCO6)c2=O)[C@H](C)N(C(=O)c2cc4cc([C@H]5CCOC(C)(C)C5)ccc4n2[C@@]2(c4noc(=O)[nH]4)C[C@@H]2C)CC3)cc(C)c1F,EC50,GLP-1R,< 10 nM
Cc1cc(-n2nc3c(c2-n2ccn(-c4ccc5c(cnn5CC5CC5)c4F)c2=O)[C@H](C)N(C(=O)c2cc4cc([C@H]5CCOC(C)(C)C5)ccc4n2[C@@]2(c4noc(=O)[nH]4)C[C@@H]2C)CC3)cc(C)c1F,EC50,GLP-1R,< 10 nM
Cc1cc(-n2nc3c(c2-n2ccn(-c4ccc5c(cnn5C5CC5)c4F)c2=O)[C@H](C)N(C(=O)c2cc4cc([C@H]5CCOC(C)(C)C5)ccc4n2[C@@]2(c4noc(=O)[nH]4)C[C@@H]2C)CC3)cc(C)c1F,average body weight gain rate,[1]; after 20 days of continuous administration,-20.3%
same,Mean blood glucose AUC,"[2]; 0-120 min after i.p. glucose 2 g/kg, single i.g. dose 0.05 mg/kg given 60 min before, Mean ± SD",949.6 ± 87.6 mmol·min/L
same,blood glucose levels after glucose loading,"[2]; 0.05 mg/kg i.g., at 15 min, 30 min, 60 min and 120 min after glucose loading, versus Vehicle group",significantly lower than those in the Vehicle group
same,agonistic effect (agonism rate),44 targets; single concentration of 10 µM (Eta agonistic effect 12 µM),< 50%
same,binding or inhibition effect (inhibition rate),44 targets; single concentration of 10 µM,< 50%
same,AUCinf,[3]; [5],19736 ng·h/mL
same,Cl,[3]; [5],1.7 mL/min/kg
same,T1/2,[3]; [5],7.14 h
same,AUCinf,[3]; [6],21599 ng·h/mL
same,Cl,[3]; [6],1.54 mL/min/kg
same,T1/2,[3]; [6],10 h
same,AUCinf,[3]; [7],95629 ng·h/mL
same,Cmax,[3]; [7],8197 ng/mL
same,F,[3]; [7],96.9%
same,T1/2,[3]; [7],7.77 h
same,Tmax,[3]; [7],1.67 h
same,AUCinf,[3]; [8],103132 ng·h/mL
same,Cmax,[3]; [8],8197 ng/mL
same,F,[3]; [8],95.5%
same,T1/2,[3]; [8],9.56 h
same,Tmax,[3]; [8],1.67 h
same,EC50,GLP-1R,< 10 nM
Cc1cc(-n2nc3c(c2-n2ccn(-c4ccc5nn(CC6CC6)cc5c4F)c2=O)[C@H](C)N(C(=O)c2cc4cc([C@H]5CCOC(C)(C)C5)ccc4n2[C@@]2(c4noc(=O)[nH]4)C[C@@H]2C)CC3)cc(C)c1F,AUCinf,[3]; [5],17341 ng·h/mL
same,AUCinf,[3]; [7],85040 ng·h/mL
same,Cmax,[3]; [7],7807 ng/mL
same,F,[3]; [7],98.1%
same,Tmax,[3]; [7],1.67 h
same,AUCinf,[4],31480 ng·h/mL
same,Cmax,[4],3190 ng/mL
same,T1/2,[4],7.47 h
same,Tmax,[4],3.33 h
same,EC50,GLP-1R,< 10 nM
Cc1cc(-n2nc3c(c2NC(=O)Nc2ccc4c(cnn4C)c2)[C@H](C)N(C(=O)c2cc4cc([C@H]5CCOC(C)(C)C5)ccc4n2[C@@]2(c4noc(=O)[nH]4)C[C@@H]2C)CC3)cc(C)c1F,EC50,GLP-1R,< 10 nM
Cc1cc(-n2nc3c(c2-n2ccn(-c4ccc5nn6c(c5c4)OCCC6)c2=O)[C@H](C)N(C(=O)c2cc4cc([C@H]5CCOC(C)(C)C5)ccc4n2[C@@]2(c4noc(=O)[nH]4)C[C@@H]2C)CC3)cc(C)c1F,EC50,GLP-1R,< 10 nM
Cc1cc(-n2nc3c(c2-n2ccn(-c4cc5c6c(cnn6CCO5)c4)c2=O)[C@H](C)N(C(=O)c2cc4cc([C@H]5CCOC(C)(C)C5)ccc4n2[C@@]2(c4noc(=O)[nH]4)C[C@@H]2C)CC3)cc(C)c1F,AUCinf,[3]; [5],7706 ng·h/mL
same,AUCinf,[3]; [7],41197 ng·h/mL
same,Cmax,[3]; [7],5377 ng/mL
same,Tmax,[3]; [7],1.33 h
same,AUCinf,[4],24500 ng·h/mL
same,Cmax,[4],2947 ng/mL
same,T1/2,[4],3.86 h
same,Tmax,[4],2.0 h
same,EC50,GLP-1R,< 10 nM
Cc1cc(-n2nc3c(c2NC(=O)Nc2ccc4c(cnn4C)c2F)[C@H](C)N(C(=O)c2cc4cc([C@H]5CCOC(C)(C)C5)ccc4n2[C@@]2(c4noc(=O)[nH]4)C[C@@H]2C)CC3)cc(C)c1F,EC50,GLP-1R,< 10 nM

# Source: patent EP4831172A1, “A CLASS OF POLYCYCLIC COMPOUNDS AND USES THEREOF” (dated 2026)
